Protein sequences, listed by entry. Tags and fused reporters are not part of them.
UniProt P41144, whole entry: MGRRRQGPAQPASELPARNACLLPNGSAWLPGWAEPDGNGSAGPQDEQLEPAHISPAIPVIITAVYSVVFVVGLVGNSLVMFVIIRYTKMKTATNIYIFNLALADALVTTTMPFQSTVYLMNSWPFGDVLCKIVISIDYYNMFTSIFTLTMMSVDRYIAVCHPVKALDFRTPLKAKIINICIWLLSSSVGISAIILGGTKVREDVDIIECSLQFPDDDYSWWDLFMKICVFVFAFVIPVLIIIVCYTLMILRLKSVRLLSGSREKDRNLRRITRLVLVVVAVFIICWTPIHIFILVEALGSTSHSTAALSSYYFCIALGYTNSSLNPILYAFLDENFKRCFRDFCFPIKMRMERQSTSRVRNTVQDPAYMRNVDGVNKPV

According to patent US4906655A, “Novel 1,2-cyclohexylaminoaryl amides useful as analgesic agents” (dated 1990):

Molecular target: kappa opioid receptor (Cavia porcellus, UniProt P41144)
Assay: kappa opioid receptor binding, tritiated etorphine, brain homogenates
Conditions: monohydrochloride; for pKi: read-out: Opioid Binding ki kappa, guinea pig brain homogenates, [3H]etorphine with 200 nM DADLE and 200 nM DAGO, mean of at least two experiments in triplicate; for mu/k (mu/kappa ratio of ki): ratio of mu ki to kappa ki

SMILES | pKi | mu/k (mu/kappa ratio of ki)
CN(C(=O)C1Cc2cccc3cccc1c23)C1CCCCC1N1CCCC1 (single isomer, unassigned) [1a] | 7.79 | –
CN(C(=O)C1Cc2cccc3cccc1c23)C1CCCCC1N1CCCC1.Cl (single isomer, unassigned) [1a] | – | 161
CN(C(=O)C1Cc2cccc3cccc1c23)C1CCCCC1N1CCCC1 (single isomer, unassigned) [1b] | 7.51 | –
CN(C(=O)C1Cc2cccc3cccc1c23)C1CCCCC1N1CCCC1.Cl (single isomer, unassigned) [1b] | – | 12.5
CN(C(=O)C1Cc2cccc3cccc1c23)[C@H]1CC[C@@]2(CCCO2)C[C@@H]1N1CCCC1 (single isomer, unassigned) [1e] | 9.74 | 1420
CN(C(=O)C1Cc2cccc3cccc1c23)[C@H]1CC[C@@]2(CCCO2)C[C@@H]1N1CCCC1 (single isomer, unassigned) [1f] | 8.92 | 227

pKi: −log10 of the molar value. Some compounds may have been tested in ways that are not shown here.
